Like-named read-outs stand apart in the source and are kept apart here.
[1] = target concentration 0.2 mol/L, metal:ligand 1:1, pH 7, with Na2SO4

| deposition of manganese compound on preparing aqueous solution (0.2 mol/L, molar ratio of manganese to ethylenediamine 1:5, pH 7, with Na2SO4) | Substance | deposition of manganese compound on preparing aqueous solution [1] |
| --- | --- | --- |
| no manganese compound was deposited | Mn(II)-ethylenediamine complex | a manganese compound is deposited immediately |
|  | Mn(II)-succinic acid complex | a manganese compound was immediately deposited |
